In this test the target is PI3k δ (Homo sapiens, UniProt O00329). Particulars: read-out: PI3k δ Ki.

Sequences of proteins named here, by UniProt entry; tags and fusion partners are left off. A change or cut given only in a name is not applied to a line headed by its entry.
UniProt O00329, whole entry: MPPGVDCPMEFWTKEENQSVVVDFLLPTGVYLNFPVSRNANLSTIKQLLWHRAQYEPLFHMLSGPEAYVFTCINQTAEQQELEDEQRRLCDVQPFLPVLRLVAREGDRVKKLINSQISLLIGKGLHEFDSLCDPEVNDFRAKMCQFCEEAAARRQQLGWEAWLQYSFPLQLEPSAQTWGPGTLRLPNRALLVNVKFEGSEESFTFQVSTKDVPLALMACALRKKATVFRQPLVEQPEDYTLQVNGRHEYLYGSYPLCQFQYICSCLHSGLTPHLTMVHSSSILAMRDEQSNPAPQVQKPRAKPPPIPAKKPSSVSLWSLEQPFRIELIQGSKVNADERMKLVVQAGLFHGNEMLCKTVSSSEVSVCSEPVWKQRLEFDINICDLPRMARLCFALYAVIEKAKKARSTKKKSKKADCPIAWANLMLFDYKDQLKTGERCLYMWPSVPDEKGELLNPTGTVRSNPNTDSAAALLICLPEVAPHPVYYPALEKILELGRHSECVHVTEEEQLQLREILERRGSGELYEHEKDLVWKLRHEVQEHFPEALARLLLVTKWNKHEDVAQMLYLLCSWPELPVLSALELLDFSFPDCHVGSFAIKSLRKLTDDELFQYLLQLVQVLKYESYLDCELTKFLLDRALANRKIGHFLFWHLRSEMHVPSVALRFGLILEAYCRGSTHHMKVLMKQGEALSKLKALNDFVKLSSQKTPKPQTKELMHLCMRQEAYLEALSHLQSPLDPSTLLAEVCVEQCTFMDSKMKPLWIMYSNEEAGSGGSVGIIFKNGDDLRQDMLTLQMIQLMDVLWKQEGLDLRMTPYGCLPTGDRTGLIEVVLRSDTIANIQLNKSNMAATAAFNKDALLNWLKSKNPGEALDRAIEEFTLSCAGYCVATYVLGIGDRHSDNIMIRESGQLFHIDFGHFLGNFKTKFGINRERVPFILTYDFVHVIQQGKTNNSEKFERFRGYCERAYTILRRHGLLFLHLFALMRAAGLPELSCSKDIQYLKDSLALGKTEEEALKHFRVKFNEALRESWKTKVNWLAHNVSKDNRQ
UniProt P27986, whole entry partner: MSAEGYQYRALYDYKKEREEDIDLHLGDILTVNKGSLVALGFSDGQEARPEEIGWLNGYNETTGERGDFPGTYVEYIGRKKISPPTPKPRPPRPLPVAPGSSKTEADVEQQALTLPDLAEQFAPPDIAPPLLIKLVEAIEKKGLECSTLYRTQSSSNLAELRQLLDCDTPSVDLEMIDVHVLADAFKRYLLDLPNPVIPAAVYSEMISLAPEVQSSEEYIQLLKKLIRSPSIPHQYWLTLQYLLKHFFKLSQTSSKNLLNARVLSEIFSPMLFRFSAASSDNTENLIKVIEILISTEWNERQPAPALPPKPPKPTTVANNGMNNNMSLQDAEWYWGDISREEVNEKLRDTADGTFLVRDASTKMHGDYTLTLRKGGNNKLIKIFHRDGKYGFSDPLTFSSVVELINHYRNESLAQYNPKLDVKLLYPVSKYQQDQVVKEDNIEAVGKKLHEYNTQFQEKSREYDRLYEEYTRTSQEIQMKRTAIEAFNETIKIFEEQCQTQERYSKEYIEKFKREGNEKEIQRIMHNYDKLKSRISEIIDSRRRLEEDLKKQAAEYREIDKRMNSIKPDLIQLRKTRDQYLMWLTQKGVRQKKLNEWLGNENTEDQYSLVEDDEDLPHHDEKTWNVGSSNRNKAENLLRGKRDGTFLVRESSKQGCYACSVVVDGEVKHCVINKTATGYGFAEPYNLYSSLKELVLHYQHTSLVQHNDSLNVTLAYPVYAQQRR

Read-outs that look alike come from different tables or passages of the source.

Take `CC(Nc1ncnc(N)c1C#N)c1nc2ncccc2n1-c1cc(F)cc(F)c1` (centres unmarked): the Ki (as a rule, the dissociation constant of the complex between target and ligand, obtained from inhibition or displacement) was 0.344 µM.
In the case of `CC(Nc1ncnc(N)c1C#N)c1nc2cnccc2n1-c1cc(F)cc(F)c1` (centres unmarked), for the setting “tested form: racemic mixture of the (1R) and (1S) ena”, the Ki stood at 11.1 µM.

The record behind these values is patent US8575183B2, “Heterocyclic compounds and their uses” (priority 2010, dated 2013).
